Measurements as given in patent US8530504B2, “Pyrazolothiazole compound” (Eisai R&D Management Co., Ltd., priority 2009, dated 2013).

Chains of the proteins cited; added tags and fusions are not shown. Residues count along the entry.
UniProt P34998, 24-415: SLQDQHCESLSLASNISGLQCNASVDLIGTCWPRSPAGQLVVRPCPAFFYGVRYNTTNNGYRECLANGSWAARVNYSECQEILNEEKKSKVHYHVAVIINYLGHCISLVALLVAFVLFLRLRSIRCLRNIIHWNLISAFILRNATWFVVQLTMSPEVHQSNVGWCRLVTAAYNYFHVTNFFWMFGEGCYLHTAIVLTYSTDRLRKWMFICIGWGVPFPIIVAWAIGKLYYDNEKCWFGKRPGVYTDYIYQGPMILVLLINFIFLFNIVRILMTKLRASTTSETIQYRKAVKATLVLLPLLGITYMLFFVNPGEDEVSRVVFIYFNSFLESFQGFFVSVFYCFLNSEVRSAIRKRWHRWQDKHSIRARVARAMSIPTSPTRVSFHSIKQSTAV

The compounds below were run against human CRFR1 (Homo sapiens (Human), UniProt P34998) (assay: CRFR1 Binding Test). Conditions: competition with 100 pM 125I-CRF, SPA method, membrane fraction of human CRFR1-expressing HEK293 cells; read-out: CRF1 receptor binding capacity IC50.
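Note: nonspecific binding was determined with a 4,000-fold excess of unlabelled sauvagine and subtracted from every reading.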

Row | IC50 [nM] | SMILES
1 | 45 | CCCN(CC1C2COCC21)c1c(OC)nn2c(-c3c(OC)cc(COC)cc3OC)csc12 (single isomer, unassigned; diastereomer 1) [Example 93, 3-[2,6-Dimethoxy-4-(methoxymethyl)phenyl]-6-methoxy-N-[3-oxabicyclo[3.1.0]hex-6-ylmethyl]-N-propylpyrazolo[5,1-b][1,3]thiazole-7-amine (diastereomer 1)]
2 | 99 | CCCN(CC1C2COCC21)c1c(OC)nn2c(-c3c(OC)cc(C#N)cc3OC)csc12 (single isomer, unassigned; diastereomer 1) [Example 101]
3 | 80 | CCCN(CC1C2COCC21)c1c(OC)nn2c(-c3c(OC)cc(COC)cc3OC)csc12 (single isomer, unassigned; diastereomer 2) [Example 95, 3-[2,6-Dimethoxy-4-(methoxymethyl)phenyl]-6-methoxy-N-[3-oxabicyclo[3.1.0]hex-6-ylmethyl]-N-propylpyrazolo[5,1-b][1,3]thiazole-7-amine (diastereomer 2)]
